# From patent publication US10945932B2, “Prebiotic oral care compositions containing carboxylic acids” (COLGATE-PALMOLIVE COMPANY, priority 2013, dated 2021)
# What was measured:
# Type in all cases: cell-based
# [1] = tested on: Aggregatibacter actinomycetemcomitans; assay: Metabolic activity, Biolog phenotype microarray; settings: A actinomycetemcomitans
# Protocol: (§1) The extent of metabolic activity of the tested bacteria in the presence of the above-mentioned acids after 24 hours and 48 hours was investigated through a high throughput phenotype microarray system (PM) for microbial cells (Biolog Inc.). Each PM can contain up to 95 different biochemical compounds (e.g. organic acids) that may act as substrates for bacteria as well as one negative control, not containing the substrates. Microarray plates were used in which the different wells of each plate were pre-loaded (by the manufacturer, Biolog Inc.) with different organic acids to be tested. Each bacterial species was tested using a separate microarray plate. Thus, a single bacterial species was tested with a variety of organic acids on each particular plate. The microarrays are based on redox technology, using cell respiration as a universal reporter. […] The observation of this color change indicates which of the substrates improve the metabolic activity and health of the cells.
# (§2) Each bacterial species was collected from blood agar plates (incubated for 48 hours anaerobically at 37° C.) and transferred to an IF-0 Base inoculation fluid (Biolog Inc.), which is a nutritionally poor medium. […] A 1:5 dilution of this suspension was prepared by mixing 3 mL of the 42% transmittance cell suspension with 15 mL of an inoculation fluid (which inoculation fluid was formed by mixing 11.6 mL sterile water, 62.5 mL IF-0 base inoculation fluid and 0.9 mL of the tetrazolium dye “Biolog Redox Dye mix D”), resulting in a final cell density which was equal to 85% transmittance using a BioRad SmartSpec 3000 Photometer. For each of the acids tested, the microarray plate (obtained from the supplier (Biolog Inc.) with acid already present in the relevant wells in powder form) was directly inoculated with 100 μL/well of this 85% transmittance cell suspension.
# (§3) All plates were incubated in an anaerobic atmosphere at 37° C. Color changes were measured spectrophotometrically at 492 nm (Thermo Scientific Multiskan Ascent) at 24 hrs and 48 hrs using the same plate at both time points.
# (§4) The controls were also carried out three times, as above.
# Streptococcus mitis = assay: Metabolic activity, Biolog phenotype microarray; settings: S mitis
# Protocol: as §1, §2, §3, §4
# Fusobacterium nucleatum = assay: Metabolic activity, Biolog phenotype microarray; settings: F nucleatum
# Protocol: as §1, §2, §3, §4
# Porphyromonas gingivalis = assay: Metabolic activity, Biolog phenotype microarray; settings: P gingivalis
# Protocol: as §1, §2, §3, §4
# Capnocytophaga sputigena = assay: Metabolic activity, Biolog phenotype microarray; settings: C sputigena
# Protocol: as §1, §2, §3, §4
# Streptococcus salivarius = assay: Metabolic activity, Biolog phenotype microarray; settings: S salivarius
# Protocol: as §1, §2, §3, §4
# Actinomyces viscosus = assay: Metabolic activity, Biolog phenotype microarray; settings: A viscosus
# Protocol: as §1, §2, §3, §4
# Streptococcus gordonii = assay: Metabolic activity, Biolog phenotype microarray; settings: S gordonii
# Protocol: as §1, §2, §3, §4
# Actinomyces naeslundii = assay: Metabolic activity, Biolog phenotype microarray; settings: A naeslundii
# Protocol: as §1, §2, §3, §4
# Veillonella parvula = assay: Metabolic activity, Biolog phenotype microarray; settings: V parvula
# Protocol: as §1, §2, §3, §4
# Streptococcus mutans = assay: Metabolic activity, Biolog phenotype microarray; settings: S mutans
# Protocol: as §1, §2, §3, §4
# Streptococcus sobrinus = assay: Metabolic activity, Biolog phenotype microarray; settings: S sobrinus
# Protocol: as §1, §2, §3, §4
# Prevotella intermedia = assay: Metabolic activity, Biolog phenotype microarray; settings: P intermedia
# Protocol: as §1, §2, §3, §4
# Tannerella forsythia = assay: Metabolic activity, Biolog phenotype microarray; settings: T forsythia
# Protocol: as §1, §2, §3, §4
# Streptococcus sanguinis = assay: Metabolic activity, Biolog phenotype microarray; settings: S sanguinis
# Protocol: as §1, §2, §3, §4
# [2] = tested on: beneficial oral bacteria and pathogenic oral bacteria; assay: Metabolic activity, prebiotic effect over the whole panel; settings: 48 hrs; threshold value of 2
# Protocol: as §1, with “cells. […]” for “cells.”
# All plates were incubated in an anaerobic atmosphere at 37° C. Color changes were measured spectrophotometrically at 492 nm (Thermo Scientific Multiskan Ascent) at 24 hrs and 48 hrs using the same plate at both time points. […]
smiles,measurement,setting,value
"O=C(O)CCC(=O)C(=O)O [Alpha-keto-glutaric acid, alpha-keto-glutaric acid]","metabolic activity, OD at 492 nm divided by OD of control (control = 1)",[1]; 24 hrs,1.0311
same,"metabolic activity, OD at 492 nm divided by OD of control (control = 1)",[1]; 48 hrs,1.2745
same,"metabolic activity, OD at 492 nm divided by OD of control (control = 1)",Streptococcus mitis; 24 hrs,1.0211
same,"metabolic activity, OD at 492 nm divided by OD of control (control = 1)",Streptococcus mitis; 48 hrs,1.0001
same,"metabolic activity, OD at 492 nm divided by OD of control (control = 1)",Fusobacterium nucleatum; 24 hrs,0.8164
same,"metabolic activity, OD at 492 nm divided by OD of control (control = 1)",Fusobacterium nucleatum; 48 hrs,1.4088
same,"metabolic activity, OD at 492 nm divided by OD of control (control = 1)",Porphyromonas gingivalis; 24 hrs,0.8494
same,"metabolic activity, OD at 492 nm divided by OD of control (control = 1)",Porphyromonas gingivalis; 48 hrs,0.8493
same,"metabolic activity, OD at 492 nm divided by OD of control (control = 1)",Capnocytophaga sputigena; 24 hrs,0.6312
same,"metabolic activity, OD at 492 nm divided by OD of control (control = 1)",Capnocytophaga sputigena; 48 hrs,0.8910
same,"metabolic activity, OD at 492 nm divided by OD of control (control = 1)",Streptococcus salivarius; 24 hrs,1.1057
same,"metabolic activity, OD at 492 nm divided by OD of control (control = 1)",Streptococcus salivarius; 48 hrs,1.1207
same,"metabolic activity, OD at 492 nm divided by OD of control (control = 1)",Actinomyces viscosus; 24 hrs,0.9915
same,"metabolic activity, OD at 492 nm divided by OD of control (control = 1)",Actinomyces viscosus; 48 hrs,1.0515
same,"metabolic activity, OD at 492 nm divided by OD of control (control = 1)",Streptococcus gordonii; 24 hrs,0.9127
same,"metabolic activity, OD at 492 nm divided by OD of control (control = 1)",Streptococcus gordonii; 48 hrs,0.9193
same,"metabolic activity, OD at 492 nm divided by OD of control (control = 1)",Actinomyces naeslundii; 24 hrs,0.9093
same,"metabolic activity, OD at 492 nm divided by OD of control (control = 1)",Actinomyces naeslundii; 48 hrs,0.9031
same,"metabolic activity, OD at 492 nm divided by OD of control (control = 1)",Veillonella parvula; 24 hrs,1.4942
same,"metabolic activity, OD at 492 nm divided by OD of control (control = 1)",Veillonella parvula; 48 hrs,2.1872
same,"metabolic activity, OD at 492 nm divided by OD of control (control = 1)",Streptococcus mutans; 24 hrs,1.0330
same,"metabolic activity, OD at 492 nm divided by OD of control (control = 1)",Streptococcus mutans; 48 hrs,1.0484
same,"metabolic activity, OD at 492 nm divided by OD of control (control = 1)",Streptococcus sobrinus; 24 hrs,0.9463
same,"metabolic activity, OD at 492 nm divided by OD of control (control = 1)",Streptococcus sobrinus; 48 hrs,0.9784
same,"metabolic activity, OD at 492 nm divided by OD of control (control = 1)",Prevotella intermedia; 24 hrs,1.0787
same,"metabolic activity, OD at 492 nm divided by OD of control (control = 1)",Prevotella intermedia; 48 hrs,1.1353
same,"metabolic activity, OD at 492 nm divided by OD of control (control = 1)",Tannerella forsythia; 24 hrs,0.9714
same,"metabolic activity, OD at 492 nm divided by OD of control (control = 1)",Tannerella forsythia; 48 hrs,1.0338
same,"metabolic activity, OD at 492 nm divided by OD of control (control = 1)",Streptococcus sanguinis; 24 hrs,0.9629
same,"metabolic activity, OD at 492 nm divided by OD of control (control = 1)",Streptococcus sanguinis; 48 hrs,1.0284
same,prebiotic effect (metabolic activity),[2],exhibited prebiotic effects
